Key:
[1] = biological target: T1, Atmc9 (Arabidopsis thaliana, UniProt Q9FYE1); assay type: biochemical; settings: for Activity (%): pH 5.3
T1 construct: it indeed consists of amino acids 184 to 325 (calculated mass 15427 Da); made in house; host or cells: E. coli BL21(DE3), pDEST17, Ni-NTA purified
T1 sequence (Q9FYE1 1-183 limits assumed): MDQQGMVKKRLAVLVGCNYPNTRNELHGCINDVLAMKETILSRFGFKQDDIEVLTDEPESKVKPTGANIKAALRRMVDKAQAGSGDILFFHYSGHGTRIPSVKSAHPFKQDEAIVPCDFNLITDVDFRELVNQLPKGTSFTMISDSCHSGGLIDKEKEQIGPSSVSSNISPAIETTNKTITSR
T1 sequence (Q9FYE1 184-325 limits assumed): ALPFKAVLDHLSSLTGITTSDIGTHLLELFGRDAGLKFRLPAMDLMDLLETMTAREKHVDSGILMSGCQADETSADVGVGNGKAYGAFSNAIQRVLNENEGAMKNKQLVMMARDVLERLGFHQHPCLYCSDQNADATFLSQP
Description: Assays were performed in 150 μl with 400 ng of purified Atmc9 and 50 μM substrate in an optimized metacaspase 9 assay buffer (50 mM MES pH 5.3, 10% (w/v) sucrose, 0.1% (w/v) 3-[(3-cholamidopropyl)dimethylammonio]-1-propanesulfonate [CHAPS], 10 mM DTT). Time-dependent release of free amido-4-methylcoumarin (AMC) was measured on a Cytofluor 4000 fluorescence microplate reader (PerSeptive Biosystems, Farmingham, Md., USA).
We also assessed the sensitivity of Atmc9 for several protease inhibitors, chelating agents, metal ions, and stabilizing agents in the GKR-ase assay (Table 2). […] To optimize the assay conditions for Atmc9 activity, several stabilizing agents were tested.
Percentage of the activity of recombinant Atmc9 in 50 mM MES (pH 5.3) and 10 mM DTT.

[2] = biological target: T1, Atmc9; test: kcat/Km of artificial substrates of Atmc9; assay type: biochemical; settings: summary of Table 1
Description: The activity assay buffer used was composed of 50 mM MES pH 5.3, 10% (w/v) sucrose, 0.1% (w/v) 3-[(3-cholamidopropyl)dimethylammonio]-1-propanesulfonate [CHAPS], 10 mM DTT.
The concentration of active sites in the preparation of rAtmc9 was determined by active site titration with the irreversible inhibitor Z-FK-2,4,6-trimethylbenzoyloxymethyl ketone (Z-FK-tbmk; Enzyme Systems Products, Livermore, Calif., USA) to be 30 μM.
For determination of kcat/Km, 50 μl of 20 μM of the tested substrates (t-butyloxycarbonyl-Gly-Lys-Arg-7-amido-4-methylcoumarin (Boc-GKR-AMC); t-butyloxycarbonyl-Gly-Arg-Arg-7-amido-4-methylcoumarin (Boc-GRR-AMC); benzyloxycarbonyl-Phe-Arg-AMC (Z-FR-AMC); H-Ala-Phe-Lys-7-amido-4-methylcoumarin (H-AFK-AMC)) was mixed with 50 μl 600 nM rAtmc9 (final concentrations 300 nM rAtmc9 and 10 μM substrate). Release of free AMC was determined in a time course using a FLUOstar Optima fluorescence plate reader (BMB Lab Technologies, Offenburg, Del.). After total hydrolysis of the substrates, kcatlKm was calculated using the following formula: kcat/Km=kobsIEt, where kobs is determined as the decrease per second of the natural logarithm of substrate left, and Et is the concentration of enzyme active sites in the reaction.

[3] = biological target: T2, metacaspase 3 (Arabidopsis thaliana, UniProt Q9FMG1); test: Cleavage of fluorescent artificial substrates by purified metacaspase 3; assay type: biochemical; settings: assay buffers of pHs ranging from 4.5 to 9.0 (MES 50 mM)
T2 construct: made in house; host or cells: bacterial production, pDEST17 (E. coli by the general method)
T2 sequence (Q9FMG1 1-362 R151K/L157V/V158I/Q177E): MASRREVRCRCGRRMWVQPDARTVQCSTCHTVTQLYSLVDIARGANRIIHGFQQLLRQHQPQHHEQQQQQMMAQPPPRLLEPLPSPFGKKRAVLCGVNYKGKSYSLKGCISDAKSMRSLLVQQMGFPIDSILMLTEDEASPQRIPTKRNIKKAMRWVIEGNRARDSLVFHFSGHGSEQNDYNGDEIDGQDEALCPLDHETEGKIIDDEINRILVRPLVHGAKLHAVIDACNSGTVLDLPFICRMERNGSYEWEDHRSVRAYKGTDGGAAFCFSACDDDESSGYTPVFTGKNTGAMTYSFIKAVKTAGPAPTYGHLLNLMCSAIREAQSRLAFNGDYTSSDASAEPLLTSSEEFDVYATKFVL
Description: For generation of the prodomain deletion mutant of Arabidopsis thaliana metacaspase 3 (MC3ΔN), residues 1 to 91 were replaced by a methionine residue by PCR, using 5′-[…]-3′ (SEQ ID NO:43) as the forward primer and 5′-[…]-3′ (SEQ ID NO:17) as the reverse primer. 5′ extensions used for Gateway™ (Invitrogen) cloning were 5′-[…]-3′ (SEQ ID NO:44) for forward primers and 5′-[…]-3′ (SEQ ID NO:45) for reverse primers. For bacterial production, the cDNA's were cloned into the bacterial expression vector pDEST17™ (Invitrogen), resulting in the amino-terminal translational addition of the following HIS6 tag-containing sequence: […] (SEQ ID NO:37).
Activity of purified metacaspase 3 was tested with different fluorescent substrates in assay buffers of pHs ranging from 4.5 to 9.0 (MES 50 mM). The substrates tested were: Ac-DEVD-AMC, Z-VAD-AMC, Boc-GRR-AMC, Boc-GKR-AMC, Z-FR-AMC and H-AFK-AMC. Only Z-FR-AMC was cut by metacaspase 3.

[4] = biological target: Aprotinin, P00974
[5] = biological target: T3, Z-FA-fluoromethyl ketone
T3 chain: FA

Z-FA-fluoromethyl ketone [Z-FA-fmk]
effect on Atmc9 activity ([1]; at concentrations up to 100 μM): no effect | Activity (%) [1]: 109%

benzyloxycarbonyl-Phe-Arg-AMC (FR) [Z-FR-AMC]
quality as substrate for Atmc9 [2]: good substrates | cleavage by metacaspase 3 [3]: cut

Z-FK-2,4,6-trimethylbenzoyloxymethyl ketone [Z-FK-tbmk]
inhibition of Atmc9 activity ([1]; at the micromolar range): inhibited | Activity (%) [1]: 33%

B1: N-terminally HIS6-tagged Atmc9 (bacterially produced) (protein)
chain: MSYYHHHHHHLESTSLYKKAGSTMDQQGMVKKRLAVLVGCNYPNTRNELHGCINDVLAMKETILSRFGFKQDDIEVLTDEPESKVKPTGANIKAALRRMVDKAQAGSGDILFFHYSGHGTRIPSVKSAHPFKQDEAIVPCDFNLITDVDFRELVNQLPKGTSFTMISDSCHSGGLIDKEKEQIGPSSVSSNISPAIETTNKTITSRALPFKAVLDHLSSLTGITTSDIGTHLLELFGRDAGLKFRLPAMDLMDLLETMTAREKHVDSGILMSGCQADETSADVGVGNGKAYGAFSNAIQRVLNENEGAMKNKQLVMMARDVLERLGFHQHPCLYCSDQNADATFLSQP
Activity (%) of Atmc9 with Boc-GKR-AMC as substrate, reagent at 5 µg/ml [4]: 96% | Activity (%) of Atmc9 with Boc-GKR-AMC as substrate, reagent at 100 µM [5]: 109%
